We go through one compound from patent publication US20110092595A1, “Compositions and Methods for Treating Lung Cancer” (published 2011).

Test [1] concerns A549 lung cancer subcutaneous tumor xenografts (HIF1-α negative). Conditions: as reported in U.S. Publication No. 20060104902; cited from earlier work.
The test system is the same in test [2]. Kind of test: A549 lung cancer subcutaneous tumor xenograft growth. Conditions: 80 or 100 mg/kg daily i.p. for five days; FIG. 3.
In test [3] the test system is HT-29 colon cancer subcutaneous tumor xenografts. Kind of test: HT-29 colon cancer subcutaneous tumor xenograft growth. Conditions: 80 or 100 mg/kg daily i.p. for five days; FIG. 3.
For test [4], the system named is PC14-PE6 human lung adenocarcinoma (NSCLC) cells. Kind of test: Orthotopic human lung adenocarcinoma (PC14-PE6) model in nude mice. Particulars: 20 mg/kg/day oral for 5 days.
Test [5] relates to NCI-H187 human SCLC cells. Kind of test: Orthotopic human small cell lung cancer (NCI-H187) model in nude mice.

As for `NC(Cc1ccc([N+]([O-])(CCCl)CCCl)cc1)C(=O)O` (stereo not shown), the “effect against HIF1-α negative A549 lung cancer xenografts” value in test [1] is “ineffective”. Also, in test [2], the “growth of A549 lung cancer subcutaneous tumor xenografts” value was “but not A549 lung cancer”. In addition, in test [3], the “growth of HT-29 colon cancer subcutaneous tumor xenografts” value is given as “inhibited the growth”. For the same compound, the mediastinal metastasis result in test [4] was “markedly reduced mediastinal metastasis”. The “reduction of median primary lung tumor volume as compared to control” value in test [4] (p=0.005) worked out at 87%; in test [5] (high dose 20 mg/kg/day oral for 5 days, p=0.0001), 99%. The “reduction of median left lung weight as compared to control” value in test [4] (p=0.006) came out at 80%; in test [5] (high dose 20 mg/kg/day oral for 5 days, p=0.0003) it was 89%. In addition, the “preventing lung tumor growth and mediastinal metastasis” value in test [5] (high dose 20 mg/kg/day oral for 5 days) and in test [5] (low dose 10 mg/kg/day oral for 5 days) was “highly effective” throughout.
